Data from patent US12247064B2, “Modified ligand-gated ion channels and methods of use” (Howard Hughes Medical Institute, priority 2017, dated 2025).

Protein sequences, listed by entry. Tags and fused reporters are not part of them. Chains listed by the source or under a name are the forms on record and can include a tag or linker. Residues count along the entry.
UniProt P36544, 23-229 with tags or gaps Q79G limits assumed: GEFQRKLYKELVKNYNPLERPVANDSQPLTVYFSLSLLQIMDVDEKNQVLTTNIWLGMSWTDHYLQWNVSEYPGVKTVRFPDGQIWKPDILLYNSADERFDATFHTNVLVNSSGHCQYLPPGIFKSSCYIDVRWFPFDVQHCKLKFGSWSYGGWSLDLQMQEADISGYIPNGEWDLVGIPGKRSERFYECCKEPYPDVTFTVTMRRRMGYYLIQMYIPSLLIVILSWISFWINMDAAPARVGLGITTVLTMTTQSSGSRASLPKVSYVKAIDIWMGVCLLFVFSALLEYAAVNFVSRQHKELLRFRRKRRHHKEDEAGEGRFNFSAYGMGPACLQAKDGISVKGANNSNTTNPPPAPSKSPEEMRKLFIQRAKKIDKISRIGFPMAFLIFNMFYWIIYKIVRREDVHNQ
UniProt P36544, 23-229 with tags or gaps: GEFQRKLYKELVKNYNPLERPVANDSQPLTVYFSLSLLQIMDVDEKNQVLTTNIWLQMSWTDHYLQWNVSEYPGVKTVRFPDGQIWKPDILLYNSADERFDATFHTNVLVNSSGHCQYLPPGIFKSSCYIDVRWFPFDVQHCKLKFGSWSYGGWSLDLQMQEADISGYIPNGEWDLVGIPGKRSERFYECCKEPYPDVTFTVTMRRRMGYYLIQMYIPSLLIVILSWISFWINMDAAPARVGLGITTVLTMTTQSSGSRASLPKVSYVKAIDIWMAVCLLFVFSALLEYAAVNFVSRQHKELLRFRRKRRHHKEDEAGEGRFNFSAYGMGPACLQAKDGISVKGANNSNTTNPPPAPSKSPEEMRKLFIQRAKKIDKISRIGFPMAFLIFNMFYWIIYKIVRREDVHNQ

Key:
α7^Q79G-GlyR^A298G = α7^Q79G-GlyR^A298G (Homo sapiens, UniProt P36544, A298G/Q79G); details: read-out: α7^Q79G-GlyR^A298G EC50; HEK cells; Table 3
α7-GlyR = α7-GlyR (Homo sapiens, UniProt P36544); details: read-out: α7-GlyR EC50; HEK cells; Table 3

**Q.** What does the source list for O=C(OC1CN2CCC1CC2)c1ccc(C(F)(F)F)cc1 (centres unmarked)?
**A.** EC50 (α7^Q79G-GlyR^A298G): 1.43 µM; EC50 (α7-GlyR): 13.7 µM
